Measurements as given in US7854753B2, “Photokinetic delivery of biologically active substances using pulsed incoherent light” (Photokinetix, Inc., priority 2002, dated 2010).

Test: Franz skin diffusion cell permeation (percutaneous absorption) under ambient, natural or pulsed incoherent LED light

What does the source list for Insulin [Compound 19]?
% Permeation (percent increase or decrease vs dark baseline, equation 1) (350 + TiO2, 8 cps vs Dark-TiO2): 98.88%; % Permeation (percent increase or decrease vs dark baseline, equation 1) (350 + TiO2, 24 cps vs Dark-TiO2): 75.09%; % Permeation (percent increase or decrease vs dark baseline, equation 1) (350 + TiO2, 80 cps vs Dark-TiO2): 12.81%; Permeation (350 + TiO2, pulse rate 8 cps): 14.22 μg/cm^2/24 hrs; Permeation (350 + TiO2, pulse rate 24 cps): 73.73 μg/cm^2/24 hrs; Permeation (350 + TiO2, pulse rate 80 cps): 44.04 μg/cm^2/24 hrs; Permeation (350 nm LED, pulse rate 8 cps): 20.65 μg/cm^2/24 hrs; Permeation (350 nm LED, pulse rate 24 cps): 12.98 μg/cm^2/24 hrs; Permeation (350 nm LED, pulse rate 80 cps): 73.05 μg/cm^2/24 hrs; % Permeation (percent increase or decrease vs dark baseline, equation 1) (350 nm, 8 cps vs Dark): 114.43%; % Permeation (percent increase or decrease vs dark baseline, equation 1) (350 nm, 24 cps vs Dark): −64.70%; % Permeation (percent increase or decrease vs dark baseline, equation 1) (350 nm, 80 cps vs Dark): 58.01%; % Permeation (percent increase or decrease vs dark baseline, equation 1) (390 + TiO2, 8 cps vs Dark-TiO2): 282.10%; % Permeation (percent increase or decrease vs dark baseline, equation 1) (390 + TiO2, 24 cps vs Dark-TiO2): 85.21%; % Permeation (percent increase or decrease vs dark baseline, equation 1) (390 + TiO2, 80 cps vs Dark-TiO2): 92.44%; Permeation (390 + TiO2, pulse rate 8 cps): 27.32 μg/cm^2/24 hrs; Permeation (390 + TiO2, pulse rate 24 cps): 77.99 μg/cm^2/24 hrs; Permeation (390 + TiO2, pulse rate 80 cps): 75.13 μg/cm^2/24 hrs; Permeation (390 nm LED, pulse rate 8 cps): 22.87 μg/cm^2/24 hrs; Permeation (390 nm LED, pulse rate 24 cps): 84.67 μg/cm^2/24 hrs; Permeation (390 nm LED, pulse rate 80 cps): 36.54 μg/cm^2/24 hrs; % Permeation (percent increase or decrease vs dark baseline, equation 1) (390 nm, 8 cps vs Dark): 137.49%; % Permeation (percent increase or decrease vs dark baseline, equation 1) (390 nm, 24 cps vs Dark): 130.27%; % Permeation (percent increase or decrease vs dark baseline, equation 1) (390 nm, 80 cps vs Dark): −20.96%; % Permeation (percent increase or decrease vs dark baseline, equation 1) (405 + TiO2, 8 cps vs Dark-TiO2): 118.04%; % Permeation (percent increase or decrease vs dark baseline, equation 1) (405 + TiO2, 24 cps vs Dark-TiO2): 89.79%; % Permeation (percent increase or decrease vs dark baseline, equation 1) (405 + TiO2, 80 cps vs Dark-TiO2): 25.72%; Permeation (405 + TiO2, pulse rate 8 cps): 15.59 μg/cm^2/24 hrs; Permeation (405 + TiO2, pulse rate 24 cps): 79.92 μg/cm^2/24 hrs; Permeation (405 + TiO2, pulse rate 80 cps): 49.08 μg/cm^2/24 hrs; Permeation (405 nm LED, pulse rate 8 cps): 29.27 μg/cm^2/24 hrs; Permeation (405 nm LED, pulse rate 24 cps): 79.31 μg/cm^2/24 hrs; Permeation (405 nm LED, pulse rate 80 cps): 19.79 μg/cm^2/24 hrs; % Permeation (percent increase or decrease vs dark baseline, equation 1) (405 nm, 8 cps vs Dark): 203.95%; % Permeation (percent increase or decrease vs dark baseline, equation 1) (405 nm, 24 cps vs Dark): 115.69%; % Permeation (percent increase or decrease vs dark baseline, equation 1) (405 nm, 80 cps vs Dark): −57.19%; % Permeation (percent increase or decrease vs dark baseline, equation 1) (450 + TiO2, 8 cps vs Dark-TiO2): 221.12%; % Permeation (percent increase or decrease vs dark baseline, equation 1) (450 + TiO2, 24 cps vs Dark-TiO2): 62.76%; % Permeation (percent increase or decrease vs dark baseline, equation 1) (450 + TiO2, 80 cps vs Dark-TiO2): −31.33%; Permeation (450 + TiO2, pulse rate 8 cps): 22.96 μg/cm^2/24 hrs; Permeation (450 + TiO2, pulse rate 24 cps): 68.54 μg/cm^2/24 hrs; Permeation (450 + TiO2, pulse rate 80 cps): 26.81 μg/cm^2/24 hrs; Permeation (450 nm LED, pulse rate 8 cps): 21.55 μg/cm^2/24 hrs; Permeation (450 nm LED, pulse rate 24 cps): 73.22 μg/cm^2/24 hrs; Permeation (450 nm LED, pulse rate 80 cps): 26.12 μg/cm^2/24 hrs; % Permeation (percent increase or decrease vs dark baseline, equation 1) (450 nm, 8 cps vs Dark): 123.78%; % Permeation (percent increase or decrease vs dark baseline, equation 1) (450 nm, 24 cps vs Dark): 99.13%; % Permeation (percent increase or decrease vs dark baseline, equation 1) (450 nm, 80 cps vs Dark): −43.50%; Permeation Dark (Dark control, ambient light absent): 1.12 μg/0.64 cm^2/25 hrs; Permeation (Dark control, 8 cps series): 9.63 μg/cm^2/24 hrs; Permeation (Dark control, 24 cps series): 36.77 μg/cm^2/24 hrs; Permeation (Dark control, 80 cps series): 46.23 μg/cm^2/24 hrs; Permeation (Dark-TiO2 control (2% TiO2), 8 cps series): 7.15 μg/cm^2/24 hrs; Permeation (Dark-TiO2 control (2% TiO2), 24 cps series): 42.11 μg/cm^2/24 hrs; Permeation (Dark-TiO2 control (2% TiO2), 80 cps series): 39.04 μg/cm^2/24 hrs; Permeation (Day (natural daylight, not pulsed), control of the 8 cps series): 15.56 μg/cm^2/24 hrs; Permeation (Day (natural daylight, not pulsed), control of the 24 cps series): 52.93 μg/cm^2/24 hrs; Permeation (Day (natural daylight, not pulsed), control of the 80 cps series): 56.11 μg/cm^2/24 hrs; % Permeation (percent increase or decrease vs dark baseline, equation 1) (Day vs Dark, 8 cps series): 61.58%; % Permeation (percent increase or decrease vs dark baseline, equation 1) (Day vs Dark, 24 cps series): 43.95%; % Permeation (percent increase or decrease vs dark baseline, equation 1) (Day vs Dark, 80 cps series): 21.37%; Permeation (Day-TiO2 (natural daylight, 2% TiO2, not pulsed), control of the 8 cps series): 8.61 μg/cm^2/24 hrs; Permeation (Day-TiO2 (natural daylight, 2% TiO2, not pulsed), control of the 24 cps series): 55.83 μg/cm^2/24 hrs; Permeation (Day-TiO2 (natural daylight, 2% TiO2, not pulsed), control of the 80 cps series): 49.95 μg/cm^2/24 hrs; % Permeation (percent increase or decrease vs dark baseline, equation 1) (Day-TiO2 vs Dark-TiO2, 8 cps series): 20.42%; % Permeation (percent increase or decrease vs dark baseline, equation 1) (Day-TiO2 vs Dark-TiO2, 24 cps series): 32.58%; % Permeation (percent increase or decrease vs dark baseline, equation 1) (Day-TiO2 vs Dark-TiO2, 80 cps series): 27.95%; Permeation Ctrl (ambient cool fluorescent light only, 260-750 nm, 120 cps): 3.55 μg/0.64 cm^2/25 hrs; Permeation Ctrl-TiO2 (ambient fluorescent light, sample with 2% (w/w) rutile TiO2): 0.00 μg/0.64 cm^2/25 hrs
